According to ChEMBL document CHEMBL1132115, “Discovery of the first potent and selective small molecule opioid receptor-like (ORL1) antagonist: 1-[(3R,4R)-1-cyclooctylmethyl-3- hydroxymethyl-4-piperidyl]-3-ethyl-1, 3-dihydro-2H-benzimidazol-2-one (J-113397)” (1999):

Columns and labels:
[1] = target: Delta-type opioid receptor (Homo sapiens, UniProt P41143); experiment: Binding affinity in CHO cells stably expressing cloned human Opioid receptor delta 1 by displacing radioligand [3H][D-Ala2,D-Leu5]enkephalin
Mu-type opioid receptor = Mu-type opioid receptor (Homo sapiens, UniProt P35372); experiment: Binding affinity in CHO cells stably expressing cloned human Opioid receptor mu 1 by displacing diprenorphine
Nociceptin receptor [2] = target: T1, Nociceptin receptor (Homo sapiens, UniProt P41146); experiment: Antagonistic activity against nociceptin produced [35S]GTP-gamma-S, binding to Opioid receptor like 1 expressed in CHO cells
Nociceptin receptor [3] = target: T1, Nociceptin receptor; experiment: Agonistic activity against nociceptin produced GTPgammaS binding to Opioid receptor like 1 expressed in CHO cells
[4] = target: Kappa-type opioid receptor (Homo sapiens, UniProt P41145); experiment: Binding affinity in CHO cells stably expressing cloned human Opioid receptor kappa 1 by displacing radioligand [3H]U-69593
Nociceptin receptor [5] = target: T1, Nociceptin receptor; experiment: Binding affinity in CHO cells stably expressing cloned human Opioid receptor like 1 by displacing radioligand [125I]Tyr14-nociceptin

| SMILES | IC50 [1] | IC50 (Mu-type opioid receptor) | IC50 (Nociceptin receptor [2]) | EC50 (Nociceptin receptor [3]) | IC50 [4] | IC50 (Nociceptin receptor [5]) |
| --- | --- | --- | --- | --- | --- | --- |
| CCn1c(=O)n([C@@H]2CCN(CC3CCCCCCC3)C[C@H]2CO)c2ccccc21 | > 10 µM | 2200 nM | 5.6 nM | > 10 µM | 1400 nM | 2.3 nM |
| CCn1c(=O)n([C@H]2CCN(CC3CCCCCCC3)C[C@@H]2CO)c2ccccc21 | > 10 µM | 3300 nM | > 10000 nM | > 10 µM | 2600 nM | 820 nM |
